Target: T1, recombinant human pancreatic GLK (Homo sapiens, UniProt P35557)
T1 sequence (P35557 1-465): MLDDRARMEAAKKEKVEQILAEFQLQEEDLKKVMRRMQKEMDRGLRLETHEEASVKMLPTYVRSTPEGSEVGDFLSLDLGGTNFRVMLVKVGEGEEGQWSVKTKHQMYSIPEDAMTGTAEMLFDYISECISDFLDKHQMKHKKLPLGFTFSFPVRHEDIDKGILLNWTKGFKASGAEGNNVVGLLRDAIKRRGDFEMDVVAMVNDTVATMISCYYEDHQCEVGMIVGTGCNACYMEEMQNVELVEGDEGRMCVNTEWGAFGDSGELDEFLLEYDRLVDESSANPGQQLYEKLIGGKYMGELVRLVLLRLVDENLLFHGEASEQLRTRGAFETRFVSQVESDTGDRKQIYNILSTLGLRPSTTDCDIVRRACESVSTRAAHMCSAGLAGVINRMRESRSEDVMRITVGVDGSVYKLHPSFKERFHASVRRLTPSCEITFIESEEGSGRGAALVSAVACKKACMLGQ
Assay: biochemical

CC[C@@H](COC)Oc1cc(Oc2ccc(C(=O)N3CCC3)cc2F)cc(C(=O)Nc2ccn(C)n2)c1 [Example 2, 3-[4-(azetidin-1-ylcarbonyl)-2-fluorophenoxy]-5-{[(1S)-1-(methoxymethyl)propyl]oxy}-N-(1-methyl-1H-pyrazol-3-yl)benzamide]
EC50: 0.04 µM
